Results as given in patent US7994211B2, “Bicyclo[2.2.1]hept-7-ylamine derivatives and their uses” (Argenta Discovery Limited, priority 2005, dated 2011).

Target: human muscarinic receptors (M3) (Homo sapiens, UniProt P20309)
Assay: Muscarinic receptor radioligand binding assay ([3H]-NMS)

**Q.** How did the Ki turn out when CN(CCCCCCCCCNC[C@H](O)c1ccc(O)c2[nH]c(=O)ccc12)[C@H]1[C@H]2CC[C@@H]1[C@H](OC(=O)C(O)(c1cccs1)c1cccs1)C2 [Example 41, Hydroxy-di-thiophen-2-yl-acetic acid (1S,2R,4S,7S)-7-({9-[(R)-2-hydroxy-2-(8-hydroxy-2-oxo-1,2-dihydro-quinolin-5-yl)-ethylamino]-nonyl}-methyl-amino)-bicyclo[2.2.1]hept-2-yl ester] was run?
**A.** < 1 nM
